Only a part of the results on these compounds is given; other tests are left out.
These substances were tested against HIF-PHD2 (Homo sapiens, UniProt Q9GZT9) (assay: Assay for HIF-PHD2 Catalytic Activity (PHD2 Binding Activity)). Settings: read-out: PHD2 Binding Activity IC50.
Assay type: biochemical

Protein sequences, listed by entry. Tags and fused reporters are not part of them.
UniProt Q9GZT9, whole entry: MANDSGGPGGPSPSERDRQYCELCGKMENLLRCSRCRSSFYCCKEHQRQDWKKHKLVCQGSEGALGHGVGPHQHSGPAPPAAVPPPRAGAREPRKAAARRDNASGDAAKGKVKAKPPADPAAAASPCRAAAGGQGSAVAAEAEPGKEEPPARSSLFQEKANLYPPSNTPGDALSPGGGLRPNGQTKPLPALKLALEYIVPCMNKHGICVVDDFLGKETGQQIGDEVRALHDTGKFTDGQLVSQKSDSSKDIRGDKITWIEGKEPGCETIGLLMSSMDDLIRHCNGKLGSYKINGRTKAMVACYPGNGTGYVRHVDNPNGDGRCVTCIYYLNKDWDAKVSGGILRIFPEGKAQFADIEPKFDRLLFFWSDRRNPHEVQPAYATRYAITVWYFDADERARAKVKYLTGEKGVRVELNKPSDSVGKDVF

Row | Substance | IC50
1 | 3-biphenyl-4-yl-1-(4-hydroxypyrimidin-2-yl)-8-[(3-methylpyridin-2-yl)methyl]-1,3,8-triazaspiro[4.5]decane-2,4-dione | 0.5 to 20 nM
2 | 3-biphenyl-4-yl-1-(6-hydroxypyrimidin-4-yl)-8-[(3-methylpyridin-2-yl)methyl]-2,4-dioxo-1,3,8-triazaspiro[4.5]decane-6-carboxylic acid | 0.5 to 20 nM
3 | tert-butyl (2-{[3-biphenyl-4-yl-1-(4-methoxypyrimidin-2-yl)-2,4-dioxo-1,3,8-triazaspiro[4.5]dec-8-yl]methyl}-1H-imidazol-1-yl)acetate | 0.5 to 20 nM

From US8921555B2, “Substituted-1,3,8-triazaspiro[4.5]decane-2,4-diones” (Merck Sharp & Dohme Corp., priority 2009, dated 2014)
